Test results: US10966968B2, “Co-administration of rosiglitazone and eicosapentaenoic acid or a derivative thereof” (Amarin Pharmaceuticals Ireland Limited, priority 2013, dated 2021)

Test: Phase 1 open-label crossover drug-drug interaction study: rosiglitazone plasma pharmacokinetics without and with ethyl eicosapentaenoate
Conditions: (Rosiglitazone + EPA)/(Rosiglitazone alone)

SMILES: CN(CCOc1ccc(CC2SC(=O)NC2=O)cc1)c1ccccn1 (centres unmarked) [Rosiglitazone, rosiglitazone]
- LSGM Ratio AUC0-inf: 0.90
- LSGM Ratio Cmax: 1.01
